Data taken from patent US10842797B2, “Nutraceutical co-crystal compositions” (UNIVERSITY OF SOUTH FLORIDA, priority 2007, dated 2020).

Experimental: Solubility profiles for co-crystals were determined by UV-vis spectroscopy (Perkin Elmer-Lambda 25 UV-vis spectrometer, 400 nm).
The solubility of KP10 in 1:1 ethanol/water (V/V %) was determined by UV-vis spectroscopy, with a wavelength of 360 nm.
The solubility of KP15 in 1:1 ethanol/water (V/V %) was determined by UV-vis spectroscopy, with a wavelength of 300 nm.

In the case of “Co-Crystal of Hesperetin and Nicotinic Acid [KP22]”, the “increase in the solubility of hesperetin in the co-crystal when compared to pure hesperetin” value is reported as “approximately 5 fold”.
